The values below are quoted from earlier work in publication PMC9722229 (European journal of pharmacology, 2019).

Sequences of proteins named here, by UniProt entry; tags and fusion partners are left off.
UniProt P23977, whole entry: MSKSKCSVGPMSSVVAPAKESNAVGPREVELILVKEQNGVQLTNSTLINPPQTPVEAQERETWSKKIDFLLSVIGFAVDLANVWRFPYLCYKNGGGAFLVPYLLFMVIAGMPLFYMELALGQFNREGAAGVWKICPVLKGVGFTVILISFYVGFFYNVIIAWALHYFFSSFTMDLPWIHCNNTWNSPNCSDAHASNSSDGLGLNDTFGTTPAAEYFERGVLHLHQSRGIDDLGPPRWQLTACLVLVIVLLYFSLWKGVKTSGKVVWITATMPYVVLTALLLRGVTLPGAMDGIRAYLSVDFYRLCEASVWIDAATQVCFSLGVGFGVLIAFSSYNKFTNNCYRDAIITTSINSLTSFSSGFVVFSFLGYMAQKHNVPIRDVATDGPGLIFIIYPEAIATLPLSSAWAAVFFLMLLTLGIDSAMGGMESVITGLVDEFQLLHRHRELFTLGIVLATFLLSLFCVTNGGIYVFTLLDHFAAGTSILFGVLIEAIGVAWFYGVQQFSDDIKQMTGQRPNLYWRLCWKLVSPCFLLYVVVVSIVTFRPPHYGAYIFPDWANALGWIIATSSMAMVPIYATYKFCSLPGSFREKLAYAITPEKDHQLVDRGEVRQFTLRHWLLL

By pKi is commonly meant the negative decadic logarithm of the Ki, by convention in mol/L.

The structures appear in SMILES notation. pKi: −log10 of the molar value.

The series addresses DAT (Rattus norvegicus, UniProt P23977). The note with it: read-out: DAT uptake, Ki, [3H]DA; rat brain synaptosomes; ref Dutta et al., 2008; cited from earlier work.

As for `CN(C)CCCN1c2ccccc2CCc2ccccc21` [Imipramine], the pKi was 5.77.
